According to patent US6579696B1, “Polymyxin B conjugates” (priority 1992, dated 2003):

Columns and labels:
[1] = system: Fc receptors of the human U937 monocyte/macrophage cell line; assay: Fc receptor binding, competition with 125I-IgG; conditions: FIG. 10
[2] = system: uptake of E. coli HB101 by U937 cells; assay: Opsonophagocytosis assay; format: cell-based, human; conditions: Table 36

In the case of “human albumin-PMB: human serum albumin conjugated with PMB by SPDP chemistry, control conjugate”, the “competition with 125I-IgG for binding to U937 cells (in words)” value [1] is reported as “no competitive binding activity at concentrations up to 10^−6”, the “U937 Cells Which Contained One Or More E. coli” value ([2]; 7.75 μg/ml) is reported as 5% and the “U937 Cells Which Contained One Or More E. coli” value ([2]; 0.0155 mg/ml) is reported as 2%. The “U937 Cells Which Contained One Or More E. coli” value ([2]; 0.031 mg/ml) was 0%.
